From patent US20210015826A1, “ANTICANCER PHARMACEUTICAL COMPOSITIONS FOR COMBINED THERAPY” (BERLIN-CHEMIE AG, priority 2018, published 2021)
Entries after “also recorded” stand apart in the source; their conditions may differ.

Key:
[1] = test system: phosphorylation of AKT and S6; assay: Immunoblotting of AKT and S6 phosphorylation in HCC1954 tumour masses; type: in vivo, athymic nude mice; settings: HCC1954 tumours collected 4 hours after third and last dose of MEN1611
Description: (§1) FIG. 4: The antitumour activity of MEN1611 is supported even by its pharmacodynamic activity, by means of the assay of immunoblotting, wherein the phosphorylation of two proteins AKT and S6, proteins downstream of PI3K, was evaluated. […] The analysed tumour masses were collected 4 hours after the third and last dose of MEN1611.
The samples were analysed by immunoblotting with antibodies directed against phosporylated akt (pS473-Akt), total Akt, phosphorylation S6 (240/244), and total S6.

[2] = test system: phosphorylation of AKT (Serina 473) and S6 (240-244); assay: Immunoblotting of AKT and S6 phosphorylation in JIMT-1 tumour masses; type: in vivo, athymic nude mice; settings: JIMT-1 tumours collected 4 hours after third and last dose of MEN1611
Description: as §1, with “2: the” for “4: The”
Moreover, the activity of MEN1611 was even evaluated by means of its capability of inhibiting phosphorylation of two proteins downstream of the cascade of PI3K, AKT (Serina 473) signal and the S6 (240-244) factor, in the tumour masses of mice belonging to each group, collected after 4 hours of the third dose and last dose of MEN1611.
The samples were analysed by immunoblotting with antibodies directed against phospohylated akt (pS473-Akt), total Akt, phosphorylation of S6 (240/244), and total S6 (FIG. 2).

trastuzumab: monoclonal antibody directed against the HER2 receptor [reference compound]
phosphorylation of AKT and S6 in tumour masses (immunoblotting) [1]: not inhibited
phosphorylation of AKT and S6 in tumour masses (immunoblotting) [2]: not inhibited; also recorded: did not change
